One substance from US6617438B1, “Oligoribonucleotides with enzymatic activity” (Sirna Therapeutics, Inc., priority 1997, dated 2003) can be followed below.

The test system of this assay is SKBR-3. It is filed as cell-based. To be noted: 0.5 nM in medium containing 0.1% or no FBS.

For the substance “Herceptin®: anti-HER2 humanized monoclonal antibody (Genentech)”, the “Maximal inhibition of proliferation” value was about 50%.
